Test results: ChEMBL document CHEMBL5096236, “Development of Fluorinated Peptoid-Based Histone Deacetylase (HDAC) Inhibitors for Therapy-Resistant Acute Leukemia” (J Med Chem, 2022)

Sequences of proteins named here, by UniProt entry; tags and fusion partners are left off. A change or cut given only in a name is not applied to a line headed by its entry.
UniProt P56524: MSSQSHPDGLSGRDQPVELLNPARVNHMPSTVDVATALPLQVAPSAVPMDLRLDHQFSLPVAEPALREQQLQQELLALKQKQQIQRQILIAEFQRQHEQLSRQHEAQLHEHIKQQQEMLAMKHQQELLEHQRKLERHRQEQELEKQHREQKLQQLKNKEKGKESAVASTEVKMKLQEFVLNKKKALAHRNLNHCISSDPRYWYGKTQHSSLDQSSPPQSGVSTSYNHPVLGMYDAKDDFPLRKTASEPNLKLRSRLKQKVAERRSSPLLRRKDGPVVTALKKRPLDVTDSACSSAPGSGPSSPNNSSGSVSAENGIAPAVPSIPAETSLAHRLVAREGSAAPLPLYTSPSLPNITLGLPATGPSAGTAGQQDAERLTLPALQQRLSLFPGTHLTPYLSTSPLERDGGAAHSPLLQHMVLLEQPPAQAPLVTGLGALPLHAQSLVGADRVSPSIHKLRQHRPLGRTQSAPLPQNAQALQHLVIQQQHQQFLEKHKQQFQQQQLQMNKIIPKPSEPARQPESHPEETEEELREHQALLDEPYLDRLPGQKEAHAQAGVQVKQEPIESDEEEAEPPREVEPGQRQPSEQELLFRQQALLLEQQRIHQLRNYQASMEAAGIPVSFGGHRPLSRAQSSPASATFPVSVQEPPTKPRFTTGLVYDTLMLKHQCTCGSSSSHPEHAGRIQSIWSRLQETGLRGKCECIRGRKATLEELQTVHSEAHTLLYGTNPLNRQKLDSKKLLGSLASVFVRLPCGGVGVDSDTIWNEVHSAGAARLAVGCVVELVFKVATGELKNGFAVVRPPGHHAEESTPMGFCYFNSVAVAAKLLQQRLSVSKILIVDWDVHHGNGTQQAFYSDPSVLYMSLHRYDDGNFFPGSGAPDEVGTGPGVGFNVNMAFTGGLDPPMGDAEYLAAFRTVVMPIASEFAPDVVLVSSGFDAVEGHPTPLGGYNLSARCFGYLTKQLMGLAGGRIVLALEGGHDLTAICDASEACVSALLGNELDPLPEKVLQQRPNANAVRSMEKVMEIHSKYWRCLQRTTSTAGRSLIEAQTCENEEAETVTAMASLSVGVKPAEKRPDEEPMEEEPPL

How the values were obtained:
[1] = molecular target: T1, Protein deacetylase HDAC6 (Homo sapiens) (UniProt Q9UBN7); experiment: (§1) Inhibition of recombinant human N-terminal GST-tagged HDAC6 (1 to 1215 residues) expressed in Sf9 insect cells using Z-Lys(Ac)-AMC as fluorogenic substrate incubated for 90 mins by microplate reader analysis
T1 sequence (whole entry): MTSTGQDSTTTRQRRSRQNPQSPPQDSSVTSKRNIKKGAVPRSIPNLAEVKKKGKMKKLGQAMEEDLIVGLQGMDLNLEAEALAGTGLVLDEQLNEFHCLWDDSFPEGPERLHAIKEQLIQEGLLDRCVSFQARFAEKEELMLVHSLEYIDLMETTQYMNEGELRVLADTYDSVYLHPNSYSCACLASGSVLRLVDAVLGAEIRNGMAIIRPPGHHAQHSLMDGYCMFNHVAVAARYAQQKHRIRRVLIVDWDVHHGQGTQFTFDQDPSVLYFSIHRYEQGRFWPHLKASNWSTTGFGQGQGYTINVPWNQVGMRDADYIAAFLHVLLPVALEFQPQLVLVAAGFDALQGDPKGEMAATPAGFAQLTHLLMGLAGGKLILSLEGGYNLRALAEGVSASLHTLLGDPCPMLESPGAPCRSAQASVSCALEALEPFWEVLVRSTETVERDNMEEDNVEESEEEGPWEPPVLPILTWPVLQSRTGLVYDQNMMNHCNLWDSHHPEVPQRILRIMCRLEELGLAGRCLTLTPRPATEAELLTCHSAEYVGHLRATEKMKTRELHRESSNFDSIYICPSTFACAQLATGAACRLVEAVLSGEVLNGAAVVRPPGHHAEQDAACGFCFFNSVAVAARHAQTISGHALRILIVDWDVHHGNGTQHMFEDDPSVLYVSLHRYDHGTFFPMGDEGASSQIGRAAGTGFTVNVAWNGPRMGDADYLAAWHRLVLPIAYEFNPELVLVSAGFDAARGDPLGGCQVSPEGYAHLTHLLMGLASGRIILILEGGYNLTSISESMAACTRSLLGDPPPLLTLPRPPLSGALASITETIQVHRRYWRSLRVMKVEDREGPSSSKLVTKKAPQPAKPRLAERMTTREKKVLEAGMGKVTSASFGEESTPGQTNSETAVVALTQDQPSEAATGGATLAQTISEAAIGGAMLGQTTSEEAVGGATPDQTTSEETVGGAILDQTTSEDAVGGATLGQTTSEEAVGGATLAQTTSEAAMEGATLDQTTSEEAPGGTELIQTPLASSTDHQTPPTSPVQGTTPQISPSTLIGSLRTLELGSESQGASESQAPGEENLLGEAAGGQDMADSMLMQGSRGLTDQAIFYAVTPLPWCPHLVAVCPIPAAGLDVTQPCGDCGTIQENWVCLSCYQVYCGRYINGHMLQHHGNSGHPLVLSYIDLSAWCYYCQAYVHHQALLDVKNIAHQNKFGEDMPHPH

[2] = molecular target: T2, Protein deacetylase HDAC6 (Homo sapiens, UniProt Q9UBN7); experiment: as §1
T2 sequence (Q9UBN7 whole entry): T1 sequence (whole entry)

Histone deacetylase 4 = Histone deacetylase 4 (Homo sapiens, UniProt P56524); experiment: Inhibition of recombinant human N-terminal GST-tagged/C-terminal His-tagged HDAC4 (627 to 1084 residues) expressed in baculovirus infected Sf9 insect cells using Boc-Lys (trifluoroacetyl)-AMC as substrate incubated for 90 mins by microplate reader analysis
How it was run: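 HDAC4 enzyme in Tris-HCl pH 8.0 buffer with NaCl, KCl, MgCl₂ and 0.1 mg/mL BSA, max. 1% DMSO. 3-fold compound serial dilutions with Boc-Lys(Tfa)-AMC (42.86 μM solution) at 37 °C for 90 min. Trypsin (1.0 mg/mL) added, 30 min. […] Three-parameter log(inhibitor) fit. Duplicates, ≥2 experiments, mean ± SD. SI = IC50 HDAC4/IC50 HDAC6.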

In the case of CN(C)c1ccc(C(=O)N(CC(=O)NCc2ccccc2)Cc2ccc(C(=O)NO)cc2F)cc1, the IC5 [1] is reported as 0.01 µM, the IC50 [2] is reported as 0.01 µM and the IC50 (Histone deacetylase 4) is reported as 1.88 µM.
